The test concerns the target T1, rat synaptosomal NE Reuptake (Rattus norvegicus, UniProt Q63380).
T1 construct: rat synaptosomal 5-HT and NE Reuptake; from tissue; host or cells: rat synaptosomes (rat brain preparations)
Description: Norepinephrine reuptake assay (rat synaptosomal NE uptake). Particulars: read-out: NE uptake inhibition IC50. In kind it is biochemical.

Sequences of proteins named here, by UniProt entry; tags and fusion partners are left off. Residues count along the entry.
UniProt Q63380, 1-617: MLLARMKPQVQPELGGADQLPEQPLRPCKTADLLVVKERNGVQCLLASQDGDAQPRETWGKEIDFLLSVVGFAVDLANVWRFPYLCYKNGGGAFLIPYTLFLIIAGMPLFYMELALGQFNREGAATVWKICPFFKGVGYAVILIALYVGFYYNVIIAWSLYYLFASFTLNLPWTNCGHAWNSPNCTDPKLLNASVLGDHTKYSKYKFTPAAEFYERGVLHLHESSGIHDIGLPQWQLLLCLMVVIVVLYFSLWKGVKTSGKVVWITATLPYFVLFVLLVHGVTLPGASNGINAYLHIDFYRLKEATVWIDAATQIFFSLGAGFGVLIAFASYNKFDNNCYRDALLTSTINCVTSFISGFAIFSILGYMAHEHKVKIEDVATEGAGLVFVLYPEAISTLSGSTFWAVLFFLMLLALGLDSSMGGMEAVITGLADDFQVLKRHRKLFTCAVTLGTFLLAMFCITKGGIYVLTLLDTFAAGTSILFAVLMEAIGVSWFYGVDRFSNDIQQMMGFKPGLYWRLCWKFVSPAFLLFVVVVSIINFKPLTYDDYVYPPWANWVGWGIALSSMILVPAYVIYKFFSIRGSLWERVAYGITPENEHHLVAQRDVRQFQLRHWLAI

The structures appear in SMILES notation. pIC50: −log10 of the molar value.

In general, pIC50 refers to the negative decadic logarithm of the IC50, by convention in mol/L. For `COc1ccc(C(CN(C)C)C2(O)CCCCC2)cc1` (stereo not shown) [Venlafaxine, reference compound], the pIC50 is 6.19.

The values are drawn from patent US6825217B2, “Carbinols for the treatment of neuropathic dysfunction” (Endo Pharmaceuticals, Inc., priority 2001, dated 2004).
